Measured values reported in PMC9873282, “Design, synthesis and evaluation of quinoline-O-carbamate derivatives as multifunctional agents for the treatment of Alzheimer’s disease” (Journal of Enzyme Inhibition and Medicinal Chemistry, 2023).

Protein sequences, listed by entry. Tags and fused reporters are not part of them. Residues count along the entry.
UniProt P06276, 29-602: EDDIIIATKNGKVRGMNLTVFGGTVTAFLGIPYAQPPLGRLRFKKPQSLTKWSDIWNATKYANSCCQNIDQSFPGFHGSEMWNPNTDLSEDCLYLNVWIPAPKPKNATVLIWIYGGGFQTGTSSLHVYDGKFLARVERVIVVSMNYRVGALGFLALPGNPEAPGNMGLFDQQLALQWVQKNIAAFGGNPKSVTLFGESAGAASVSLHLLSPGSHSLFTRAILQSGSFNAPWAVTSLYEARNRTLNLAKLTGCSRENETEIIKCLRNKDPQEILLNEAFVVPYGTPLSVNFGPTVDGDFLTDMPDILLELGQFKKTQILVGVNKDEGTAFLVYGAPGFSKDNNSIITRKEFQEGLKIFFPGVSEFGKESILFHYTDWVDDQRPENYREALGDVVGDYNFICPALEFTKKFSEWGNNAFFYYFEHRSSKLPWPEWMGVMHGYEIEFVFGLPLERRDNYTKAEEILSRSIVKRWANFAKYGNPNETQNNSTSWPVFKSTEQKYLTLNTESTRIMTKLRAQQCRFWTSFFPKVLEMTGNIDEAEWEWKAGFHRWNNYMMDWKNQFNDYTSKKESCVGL

Molecular target: T1, hBuChE (Homo sapiens, UniProt P06276)
T1 construct: hBuChE, human serum BuChE; purchased Sigma Aldrich; host or cells: human serum (natural source)
Experiment: biochemical
Conditions: IC50 ± SD hBuChE
Experimental: Acetylcholinesterase (eeAChE, from the electric eel; hAChE, from human erythrocytes AChE), butyrylcholinesterase (eqBuChE, from equine serum; hBuChE, human serum BuChE), 5,5′-dithiobis-2-nitrobenzoic acid (Ellman’s reagent, DTNB), acetylthiocholine chloride (ATC), and butyrylthiocholine chloride (BTC) were purchased form Sigma Aldrich. The determination of AChE and BuChE inhibitory potency of the synthesised compounds were evaluated by Ellman assay, the detailed procedure referred to our previous work[26]^,[27].

CCN(C)C(=O)Oc1cccc([C@H](C)N(C)C)c1 [Rivastigmine, reference compound]
IC50: 2800 ± 520 nM
